According to article PMC9358681 (Biochemical pharmacology, 2022):

Legend:
human A2BAR [1] = biological target: T1, human A2BAR (Homo sapiens, UniProt P29275); assay: [3H]PSB-603 competition association assay; format: binding; settings: read-out: Kinetic KD (koff/kon)
T1 construct: host or cells: CHO-spap
T1 sequence (P29275 1-332): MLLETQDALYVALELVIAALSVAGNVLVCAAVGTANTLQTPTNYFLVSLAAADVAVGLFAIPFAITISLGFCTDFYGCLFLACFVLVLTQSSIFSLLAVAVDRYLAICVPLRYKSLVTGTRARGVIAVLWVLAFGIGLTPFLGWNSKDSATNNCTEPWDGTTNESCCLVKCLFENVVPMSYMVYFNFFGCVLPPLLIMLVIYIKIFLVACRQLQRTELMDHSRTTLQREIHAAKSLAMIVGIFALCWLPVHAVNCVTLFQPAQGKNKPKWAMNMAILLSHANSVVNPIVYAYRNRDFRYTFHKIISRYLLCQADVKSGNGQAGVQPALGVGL

human A2BAR [2] = biological target: T1, human A2BAR; assay: [3H]PSB-603 displacement on CHO-spap-hA2BAR membranes; format: binding; settings: […] [3H]PSB-603, 2 h, 25 °C

- Kd (human A2BAR [1]): 0.61 ± 0.14 nM
- Ki (human A2BAR [2]): 1.78 nM
SMILES: CCCn1c(=O)c2[nH]c(-c3ccc(OCC(=O)Nc4ccc(C#N)cc4)cc3)nc2n(CCC)c1=O [Compound 13]
